Apparent affinities of Ab-14 variants for a coronavirus HR2 peptide

Target: peptide PDVDLGDISGINAS, taken from heptad repeat 2 (HR2) of SARS-CoV-2 spike.

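The parent was found by panning a naive human phage display library on the peptide. Variants in AAYL49 differ from the parent at up to three CDR positions; double and triple changes were sampled at random. The scFvs were displayed on barcoded MATa yeast, the peptide on MATalpha yeast. After mating in shaken culture at 30 °C for 16 h, diploids were selected and their barcode pairs sequenced. Scores were corrected for input abundance and mapped to Kd with protein pairs of known affinity run in the same pool. Each pool was mated in three replicate cultures.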

The variants keep the light chain, the linker and the frameworks of Ab-14 (scFv order VH, the linker GGGGSGGGGSGGGGS, VL).
VH: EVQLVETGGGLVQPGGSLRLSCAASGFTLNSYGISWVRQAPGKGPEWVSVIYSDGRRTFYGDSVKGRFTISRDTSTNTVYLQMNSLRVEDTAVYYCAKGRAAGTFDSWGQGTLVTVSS
VL: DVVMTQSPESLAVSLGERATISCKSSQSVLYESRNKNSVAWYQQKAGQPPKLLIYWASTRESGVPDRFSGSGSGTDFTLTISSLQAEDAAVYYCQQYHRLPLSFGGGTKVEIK

The parent's heavy chain CDRs are GFTLNSYGIS, VIYSDGRRTFYGDSVK, GRAAGTFDS; each variant's own CDRs replace them letter for letter.
Values are apparent Kd, the geometric mean of the replicates that gave a signal; lower means stronger binding.
Where no diploid with the target was found in any replicate, the entry reads "no signal": below detection, most likely a poor binder, though not proof of it.

| CDR-H1 | CDR-H2 | CDR-H3 | apparent Kd | detected |
|---|---|---|---|---|
| KFTLPSYGIS | VIYSDGRRTFYGDSVK | KRAAGTFDS | no signal | 0 of 3 |
| GFTLNSYGIS | VIYSDGRRTFYGCSVK | QRAAGCFDS | no signal | 0 of 3 |
| GFTLNSYGGS | VIYTCGRRTFYGDSVK | GRAAGTFDS | no signal | 0 of 3 |
| GFTLNSYGIS | VIYSDGRRTFYLDSVK | GRAAGSFWS | 3.1 nM | 3 of 3 |
| SYTLNSYGMS | VIYSDGRRTFYGDSVK | GRAAGTFDS | 7.1 µM | 3 of 3 |
| GFTLNSYGIS | VIYSDTRRTFYGDSVK | GRAMGTFDS | no signal | 0 of 3 |
| GFTLNSYGIK | VIQSDGRRTFYGDSVK | GRRAGTFDS | no signal | 0 of 3 |
| GKTLNSGGIS | VIHSDGRRTFYGDSVK | GRAAGTFDS | no signal | 0 of 3 |
| GFTLNSYGIS | VIYSDGRRTFYGDMPK | GQAAGTFDS | no signal | 0 of 3 |
| HFTLNVYGIS | VIYSDGRRNFYGDSVK | GRAAGTFDS | no signal | 0 of 3 |
| QFILNSYGIS | VIYSDGRRTFYGDSVP | GRAAGTFDS | no signal | 0 of 3 |
| GFTLNSYGIV | VIYSDGRRTFHGDSVK | GRAAGTFDS | 5.8 µM | 2 of 3 |
| GFTLNSYGTS | VIYSDGRRTFYGDSVK | GRAAGTFDC | 2.9 µM | 2 of 3 |
| GFTLNSYGIS | VIYSDGRRTHYQDSVK | GRAAHTFDS | no signal | 0 of 3 |
| GFTLNSYSIS | SIYSDGRRTFYDDSVK | GRAAGTFDS | no signal | 0 of 3 |
| GFTLNSYGIS | VIYSDGRRTFYGDSVE | SRAAGTFDF | no signal | 0 of 3 |
| GFTKNSYGIS | VIYSVGRRTFYGDSVK | GRAAGTFDP | no signal | 0 of 3 |
| GFTKNIYGIS | VIYSDGRRTFYGDSVK | GRAAGTLDS | 580 nM | 3 of 3 |
| GFTWNSYGIS | VIYSGERRTFYGDSVK | GRAAGTFDS | no signal | 0 of 3 |
| GFTLNSYGIS | VIYSTGRRTFYGDSVG | GRAAGTFKS | 840 nM | 1 of 3 |
| FFTLNSYGIS | VIYSDGRRTFYEDSVK | GRDAGTFDS | no signal | 0 of 3 |
| GFTLNSYGIS | VIYSDGRVTFYGDSVK | GRAAGTFDK | 3.5 µM | 1 of 3 |
| GFTLNSYGIS | VCYSDGRRTFYGDSTM | GRAAGTFDS | no signal | 0 of 3 |
| GFHLNSYGIS | VIYSDGRRTYYGDSVK | HRAAGTFDS | no signal | 0 of 3 |
| GFTLNSYGIS | VIYSDHRVTFYGDSVK | GRAAGTHDS | 180 µM | 1 of 3 |
| GFELNSYGIS | VIYSDGRRTFYLDSVK | GRAAGSFDS | 54 nM | 3 of 3 |
| GFTLNSYGIS | VIYGDGRRTFYGDSVK | GRRAGTFDS | 460 nM | 3 of 3 |
| GFTLNSYGDF | VIYSDGRRTFYGDSVK | GRAAGIFDS | no signal | 0 of 3 |
| GFTLNSYGYS | VIYSDGRRTFYGHSVR | GRAAGTFDS | 14 µM | 1 of 3 |
| GFTLNSYGIE | VIYSDGRYTFYGDSVK | GREAGTFDS | no signal | 0 of 3 |
| NFTLNSQGIS | DIYSDGRRTFYGDSVK | GRAAGTFDS | 110 µM | 1 of 3 |
| GFTLNSLGIS | VRYSDGRRTFYGDSVK | GRAAGTEDS | no signal | 0 of 3 |
| GFTLNSYGES | VIYSDARRTFYGDSFK | GRAAGTFDS | 2.0 µM | 1 of 3 |
| GFTLNSYGIS | YIYSDGRRTFYGDSVK | GWAAGSFDS | 5.2 µM | 2 of 3 |
| GWTLNSYGIS | VIYSDGRRTFYGDSVF | GRAIGTFDS | no signal | 0 of 3 |
| GVTLNSYGIS | QIYSDGRRTFYGDSVK | GRAAGTFYS | 23 µM | 2 of 3 |
| GFYLNSYGIS | VIYSDGRRSFYGDCVK | GRAAGTFDS | no signal | 0 of 3 |
| GQTLNSYGIS | NIYSDGRRTFYGDSVK | LRAAGTFDS | 160 µM | 1 of 3 |
| GFTLNWYGIS | VIYSDGRSTFYGDSVK | GRAAGTFDS | 370 µM | 2 of 3 |
| GFTLNSYGIS | AIYSDGYNTFYGDSVK | GRAAGTFDS | 420 nM | 1 of 3 |
| GFTLNSYGIS | VTYSDARRTFHGDSVK | GRAAGTFDS | 15 µM | 3 of 3 |
| GFKLNSYGIS | VIYLDGRRTFYGDSVI | GRAAGTFDS | 25 µM | 1 of 3 |
| GNTLNDYGIS | VIYSDTRRTFYGDSVK | GRAAGTFDS | 87 µM | 1 of 3 |
| GFTLNSYGIS | VIYWDGRRTFPGDSVK | GRAAGTDDS | no signal | 0 of 3 |
| GFTLNSYGIS | VIYSDGCRTFHGDSVK | GRIAGTFDS | no signal | 0 of 3 |
| GFTLNSYGIT | VIYFKGRRTFYGDSVK | GRAAGTFDS | no signal | 0 of 3 |
| GFTLNSYGIS | VIYRDGRRTDYGDSVI | GRAAGTFDS | 24 µM | 2 of 3 |
| GFTLNSYGIS | VIYSPGRRTFYGDSYK | GRARGTFDS | no signal | 0 of 3 |
| GFTLNSEGIS | VIYSQGRRTFYGMSVK | GRAAGTFDS | no signal | 0 of 3 |
| GFMLNSYGIS | VILSDGRRTFYGDSGK | GRAAGTFDS | no signal | 0 of 3 |
| GFTLNPYGIS | VIYSDGRRTFYGDPVK | GRAASTFDS | no signal | 0 of 3 |
| GFTLNSMIIS | VIYSDGRRTFYGDSVP | GRAAGTFDS | 5.2 µM | 2 of 3 |
| GFTLNSYGIS | VITSDGRRTFYGDSVK | GRASGTYDS | no signal | 0 of 3 |
| GFTLNSYGIS | VIYSDGRRTFWGDSVK | GRAIGTNDS | 5.6 µM | 1 of 3 |
| GFTLNSYGIS | VIYSDGRRTFYCDSHK | GRAAGTFDS | 4.4 µM | 2 of 3 |
| GFTLNSYGIS | VIYSDGRRTYYGDSVK | GGAKGTFDS | no signal | 0 of 3 |
| IFTLISYGIS | VIYSDGRRTFYGCSVK | GRAAGTFDS | 2.3 µM | 3 of 3 |
| GFSTGSYGIS | VIYSDGRRTFYGDSVK | GRAAGTFDS | 450 nM | 3 of 3 |
| GFTLNSYGIS | VIYADGRRTFYGDCVK | GRLAGTFDS | 38 nM | 3 of 3 |
| GFTLNMYGIS | VISSDGRRTFYGDSVK | GRAAGTFDS | 1.8 µM | 3 of 3 |
| GMTLNSYGIS | VIYSDGRRTFYGDSVK | GRAPGTFDA | 710 nM | 2 of 3 |
| GFVLNSYGIS | VIYSDGRRTLAGDSVK | GRAAGTFDS | 11 µM | 1 of 3 |
| GFSLNSYTIS | VIYSDGRRTFYGDSVK | GVAAGTFDS | no signal | 0 of 3 |
| GFTLNSYGID | VIYYDGRRTFYGDSVK | GRAAATFDS | 51 µM | 2 of 3 |
| GFTLNSYGIS | VIYSDGRRRFYGDSVK | MRAAGTFPS | 71 µM | 1 of 3 |
| GFTLNSYHIS | EIYSDGRRTFYGDSVK | GRLAGTFDS | no signal | 0 of 3 |
| GFTLNSVGIS | VRYSDGRRCFYGDSVK | GRAAGTFDS | no signal | 0 of 3 |

A selection of 5 entries from above:

| CDR-H1 | CDR-H2 | CDR-H3 | apparent Kd | detected |
|---|---|---|---|---|
| GVTLNSYGIS | QIYSDGRRTFYGDSVK | GRAAGTFYS | 23 µM | 2 of 3 |
| GFTKNIYGIS | VIYSDGRRTFYGDSVK | GRAAGTLDS | 580 nM | 3 of 3 |
| GFTLNSYGGS | VIYTCGRRTFYGDSVK | GRAAGTFDS | no signal | 0 of 3 |
| GFTLNSYGTS | VIYSDGRRTFYGDSVK | GRAAGTFDC | 2.9 µM | 2 of 3 |
| GFTLNSYGIS | VIYSDGRRTFWGDSVK | GRAIGTNDS | 5.6 µM | 1 of 3 |

Three control strains display no target. For library AAYL49, 15% of the pairings with them gave a signal, with a median of 11 µM and one signal in twenty below 680 nM, so weak values seen in few replicates may be background.
In this assay the parent's reference entry averaged 4.4 nM; its copy inside this library read 13 µM (one replicate of three).

Source: Engelhart et al. 2022 (doi:10.1038/s41597-022-01779-4), MIT Lincoln Laboratory and A-Alpha Bio; data file from the FLAb repository.